# Values of other authors in paper PMC6359455, “Partial Solvation Parameters of Drugs as a New Thermodynamic Tool for Pharmaceutics” (Pharmaceutics, 2019).
# Parameters: method as in doi:10.1021/acs.iecr.7b02286
# Settings: common solvents; cited from earlier work
structure (smiles),measurement,value
CCc1ccccc1 [Ethylbenzene],E (excess refractivity LSER descriptor),0.610
